Among the data in ChEMBL document CHEMBL1150386 (J Med Chem, 2008) are Ki values, retold here.

Chains of the proteins cited; added tags and fusions are not shown. Residues count along the entry.
UniProt P22303, 32-614 limits assumed: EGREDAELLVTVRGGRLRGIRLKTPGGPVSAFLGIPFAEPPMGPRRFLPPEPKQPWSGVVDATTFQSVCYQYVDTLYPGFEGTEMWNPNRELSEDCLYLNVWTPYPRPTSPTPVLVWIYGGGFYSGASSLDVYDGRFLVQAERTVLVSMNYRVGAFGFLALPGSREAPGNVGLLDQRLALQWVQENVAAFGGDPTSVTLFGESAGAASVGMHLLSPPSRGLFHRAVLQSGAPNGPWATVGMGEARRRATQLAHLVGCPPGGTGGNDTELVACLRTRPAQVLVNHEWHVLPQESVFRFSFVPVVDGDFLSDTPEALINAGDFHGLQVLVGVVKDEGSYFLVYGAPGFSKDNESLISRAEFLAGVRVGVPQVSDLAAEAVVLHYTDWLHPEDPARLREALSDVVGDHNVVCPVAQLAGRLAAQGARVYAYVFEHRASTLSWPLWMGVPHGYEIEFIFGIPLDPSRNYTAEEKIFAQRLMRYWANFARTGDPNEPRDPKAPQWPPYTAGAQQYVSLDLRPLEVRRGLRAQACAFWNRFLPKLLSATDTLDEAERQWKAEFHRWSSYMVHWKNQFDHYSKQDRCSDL
UniProt P06276, 29-602 limits assumed: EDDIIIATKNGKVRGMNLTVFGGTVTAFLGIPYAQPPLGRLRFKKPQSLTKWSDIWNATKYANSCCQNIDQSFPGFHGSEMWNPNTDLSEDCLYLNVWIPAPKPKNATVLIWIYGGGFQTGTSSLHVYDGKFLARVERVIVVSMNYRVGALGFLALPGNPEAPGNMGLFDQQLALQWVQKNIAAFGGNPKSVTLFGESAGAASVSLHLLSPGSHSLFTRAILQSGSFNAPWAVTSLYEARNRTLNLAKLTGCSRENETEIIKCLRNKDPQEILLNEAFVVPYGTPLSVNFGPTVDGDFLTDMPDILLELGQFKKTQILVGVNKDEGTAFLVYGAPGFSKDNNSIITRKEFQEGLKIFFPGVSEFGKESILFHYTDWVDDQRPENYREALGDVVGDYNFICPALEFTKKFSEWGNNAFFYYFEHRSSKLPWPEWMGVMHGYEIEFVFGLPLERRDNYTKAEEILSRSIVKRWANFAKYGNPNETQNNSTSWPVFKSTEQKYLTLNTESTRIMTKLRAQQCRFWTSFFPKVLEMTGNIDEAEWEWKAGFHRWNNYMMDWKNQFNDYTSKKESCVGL
UniProt P21836, 32-614 limits assumed: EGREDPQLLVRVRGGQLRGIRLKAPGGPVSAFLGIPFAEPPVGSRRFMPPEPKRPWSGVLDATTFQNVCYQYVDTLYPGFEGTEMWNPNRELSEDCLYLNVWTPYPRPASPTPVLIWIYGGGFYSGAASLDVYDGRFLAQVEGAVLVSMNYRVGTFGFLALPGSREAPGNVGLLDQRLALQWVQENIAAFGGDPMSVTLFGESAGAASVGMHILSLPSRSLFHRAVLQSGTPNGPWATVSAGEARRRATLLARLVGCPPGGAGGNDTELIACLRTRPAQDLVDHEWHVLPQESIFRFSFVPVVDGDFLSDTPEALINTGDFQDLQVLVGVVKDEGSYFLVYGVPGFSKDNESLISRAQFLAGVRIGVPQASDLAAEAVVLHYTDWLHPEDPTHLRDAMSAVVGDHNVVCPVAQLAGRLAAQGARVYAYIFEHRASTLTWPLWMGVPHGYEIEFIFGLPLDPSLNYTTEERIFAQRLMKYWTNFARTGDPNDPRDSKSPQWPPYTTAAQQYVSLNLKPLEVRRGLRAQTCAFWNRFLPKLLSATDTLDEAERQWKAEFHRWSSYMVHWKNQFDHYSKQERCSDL
UniProt P04058, 22-564 limits assumed: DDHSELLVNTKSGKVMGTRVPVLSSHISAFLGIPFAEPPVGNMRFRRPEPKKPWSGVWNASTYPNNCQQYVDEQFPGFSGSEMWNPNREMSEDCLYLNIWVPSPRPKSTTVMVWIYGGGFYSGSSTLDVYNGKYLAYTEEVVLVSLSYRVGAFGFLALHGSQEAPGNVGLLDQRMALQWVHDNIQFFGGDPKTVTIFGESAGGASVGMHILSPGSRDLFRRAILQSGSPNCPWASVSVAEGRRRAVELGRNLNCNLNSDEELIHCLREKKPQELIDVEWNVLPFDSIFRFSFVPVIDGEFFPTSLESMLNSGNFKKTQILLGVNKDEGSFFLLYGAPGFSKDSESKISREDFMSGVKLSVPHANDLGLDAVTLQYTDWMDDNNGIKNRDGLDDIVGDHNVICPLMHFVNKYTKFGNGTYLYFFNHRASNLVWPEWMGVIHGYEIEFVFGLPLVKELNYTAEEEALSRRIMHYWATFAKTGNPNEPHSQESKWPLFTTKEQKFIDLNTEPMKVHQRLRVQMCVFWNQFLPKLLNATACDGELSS

For test [1], the target named is T1, Acetylcholinesterase (Homo sapiens, UniProt P22303). Put plainly: Inhibition of human recombinant AChE.
A further test concerns the target Cholinesterase (Homo sapiens, UniProt P06276).
For test [2], the target named is Acetylcholinesterase (Mus musculus, UniProt P21836). The experiment in a line: Inhibition of mouse AChE.
For test [3], the target named is Acetylcholinesterase (Torpedo californica, UniProt P04058).
Test [4] addresses T1, Acetylcholinesterase.

With `CN(CCCCNc1c2c(nc3ccccc13)CCCC2)CCCNc1c2c(nc3ccccc13)CCCC2`, the Ki on Acetylcholinesterase [1] amounted to 0.0118 nM; at Cholinesterase, 0.819 nM.
In turn, `O/N=C\c1cccc[n+]1CCCCCCC[n+]1ccccc1/C=N/O` came in with a Ki at Acetylcholinesterase [2] of 1300 nM.
In turn, `Nc1ccc2c(c1)c(-c1ccccc1)[n+](CCCCCCc1cn(CCNc3c4c(nc5ccccc35)CCCC4)nn1)c1cc(N)ccc21` had a Ki at Acetylcholinesterase [3] of 0.72 nM.
Turning to `c1ccc2c(NCCCCNCCCSc3c4c(nc5ccccc35)CCCC4)c3c(nc2c1)CCCC3`, the results for the Ki at Acetylcholinesterase [1] and at Cholinesterase were 2.67 nM and 0.779 nM, respectively.
For `c1ccc2c(NCCCCCCCCSc3c4c(nc5ccccc35)CCCC4)c3c(nc2c1)CCCC3`, the Ki stood at 27.9 nM at Acetylcholinesterase [1] and 1.65 nM at Cholinesterase.
In turn, `CCOP(=O)(O)N(c1ccc(SC)c(C)c1)C(C)C` registered a Ki at Acetylcholinesterase [4] of 0.2 ×10² /M/min.
`C=CCN(CCCCNc1c2c(nc3ccccc13)CCCC2)CCCNc1c2c(nc3ccccc13)CCCC2`: the Ki on Acetylcholinesterase [1] amounted to 0.0847 nM; on Cholinesterase, 4.19 nM.
As for `Cc1cc(CCNc2c3c(nc4ccccc24)CCCC3)cc(CCNc2c3c(nc4ccccc24)CCCC3)c1`, the Ki at Acetylcholinesterase [1] worked out at 7.45 nM; at Cholinesterase, 5.04 nM.
As to `CC(=O)N(CCCCNc1c2c(nc3ccccc13)CCCC2)CCCSc1c2c(nc3ccccc13)CCCC2`, the Ki on Cholinesterase was 0.27 nM.
`c1cc(CCNc2c3c(nc4ccccc24)CCCC3)cc(CCNc2c3c(nc4ccccc24)CCCC3)c1`: the Ki at Acetylcholinesterase [1] was found to be 1.72 nM; on Cholinesterase, 0.924 nM.
Take `CC[N+](CC)(CC)CCOc1cccc(OCC[N+](CC)(CC)CC)c1OCC[N+](CC)(CC)CC`: the figures for the Ki at Acetylcholinesterase [3] and on Acetylcholinesterase [4] were 15000 nM and 37000 nM, respectively.
For the molecule `OCCN(CCCCNc1c2c(nc3ccccc13)CCCC2)CCCNc1c2c(nc3ccccc13)CCCC2`, the Ki worked out at 0.119 nM at Acetylcholinesterase [1] and 1.19 nM at Cholinesterase.
Turning to `c1cc(CCNc2c3c(nc4ccccc24)CCCC3)nc(CCNc2c3c(nc4ccccc24)CCCC3)c1`, the Ki at Acetylcholinesterase [1] is 0.768 nM; on Cholinesterase it was 1.87 nM.
In the case of `CC(=O)N(CCCCNc1c2c(nc3ccccc13)CCCC2)CCCNc1c2c(nc3ccccc13)CCCC2`, the Ki at Acetylcholinesterase [1] was 0.223 nM; on Cholinesterase, 0.725 nM.
Regarding `c1ccc2c(NCCc3cocc3CCNc3c4c(nc5ccccc35)CCCC4)c3c(nc2c1)CCCC3`, the Ki at Acetylcholinesterase [1] came out at 13.3 nM; at Cholinesterase, 7.29 nM.
On to `c1ccc2c(NCCCN3CCN(CCCNc4c5c(nc6ccccc46)CCCC5)CC3)c3c(nc2c1)CCCC3`, for which the Ki on Acetylcholinesterase [1] is 0.136 nM; at Cholinesterase, 3.22 nM.
As to `C[N+](C)(C)CCCCCCCCCC[n+]1c(-c2ccccc2)cc(N)c2ccc3ccc(N)cc3c21`, the Ki on Acetylcholinesterase [3] is 21.3 nM.
On Acetylcholinesterase [3], `C[N+](C)(C)c1cccc(C(=O)C(F)(F)F)c1` returned a Ki of 0.015 nM.
`CCN(CCCCNc1c2c(nc3ccccc13)CCCC2)CCCNc1c2c(nc3ccccc13)CCCC2`: the figures for the Ki on Acetylcholinesterase [1] and at Cholinesterase were 0.162 nM and 0.435 nM, respectively.
`CC(=O)N(CCCCSc1c2c(nc3ccccc13)CCCC2)CCCNc1c2c(nc3ccccc13)CCCC2`: the Ki at Acetylcholinesterase [1] came out at 5.15 nM; on Cholinesterase, 0.74 nM.
At Acetylcholinesterase [3], `CCC1=CC2Cc3nc4cc(Cl)ccc4c(N)c3[C@@H](C1)C2` [HUPRINE X] yielded a Ki of 0.13 nM.
In the case of `CC(=O)N(CCCNc1c2c(nc3ccccc13)CCCC2)CCCSc1c2c(nc3ccccc13)CCCC2`, the Ki on Acetylcholinesterase [1] turned out to be 13.4 nM; at Cholinesterase, 3.13 nM.
As for `CN(CCCCSc1c2c(nc3ccccc13)CCCC2)CCCNc1c2c(nc3ccccc13)CCCC2`, the Ki at Acetylcholinesterase [1] is 3.99 nM; at Cholinesterase it was 8.59 nM.
As to `c1ccc2c(NCCc3ccc(CCNc4c5c(nc6ccccc46)CCCC5)cc3)c3c(nc2c1)CCCC3`, the figures for the Ki at Acetylcholinesterase [1] and on Cholinesterase were 1.63 nM and 13.9 nM, respectively.
Regarding `CN(CCCNc1c2c(nc3ccccc13)CCCC2)CCCNc1c2c(nc3ccccc13)CCCC2`, the Ki on Acetylcholinesterase [1] is 0.54 nM; at Cholinesterase, 12.1 nM.
